Experimental data reported in patent publication US20130210057A1, “USE OF LABEL-FREE BIOSENSORS TO UNDERSTAND AND IDENTIFY TREATMENT FOR CANCER” (CORNING INCORPORATED, priority 2012, published 2013).

Assays:
[1] = system: HCT116 PTEN null cells; assay: cAMP-Glo assay; assay type: cell-based, human; details: 15 minutes incubation
Description: (§1) HCT116 parental cells or HCT116 PTEN null cells (reference cell lines) were seeded at a density of 15000 cells/well in 384-well white wall, clear bottom, and cell culture treated plates (BD Bioscience, Franklin Lakes, N.J., Cat#354660). Cells were cultured in the McCoy's 5a complete growth medium overnight. The next day cAMP-Glo assay was performed according to manufacturer's instruction (Promega, Cat# V1502). Briefly, cell culture medium was removed by flipping the plate. 7.5 μL of each compound (10 μM in induction buffer) (Cat#3565) (Corning Inc., NY) was added to each well by liquid handler robot (CyBio) for 15 minutes incubation before additions of lysis buffer, PKA kinase assay buffer, and substrate. Luminescence was measured using Tecan Salim II plate reader.
(§2) To screen endogenous receptors and their coupled signaling pathways, we first assembled a GPCR agonist focused library (Table 1). The library consists of 120 GPCR agonists covering over 150 known GPCRs, based on their known pharmacology including polypharmacology. For small molecule chemical agonists, the dose used was 10 micromolar. For peptide agonists, the dose used was 1 micromolar. For lipid agonists, the dose used was also 1 micromolar. For both peptides and lipids, these agonists were suspended in a solution containing 0.05% bovine […] to increase their stability. […]

[2] = system: HCT116 parental cells; assay: cAMP-Glo assay; assay type: cell-based, human; details: 15 minutes incubation
Description: as §1, §2

Substance: Calcitonin gene-related peptide (ACDTATCVTHRLAGLLSRSGGVVKNNFVPTNVGSKAF; Calcitonin gene-related peptide 1; UniProt P06881 83-119, looked up) [CGRP]
- cAMP accumulation (normalized to forskolin-induced cAMP increase) [1]: detectable cAMP accumulation
- cAMP accumulation (normalized to forskolin-induced cAMP increase) [2]: detectable cAMP accumulation
